Assay results reported in patent US20040253206A1 (priority 1999, published 2004).

Details: deionized water, ultrasonicated 15 minutes, filtered, lyophilized

In the case of “2′-Succinamidyl-PEG2-amine-paclitaxel trifluoroacetate [Compound 3]”, the “water solubility (by mass)” value is reported as 7400 µg/mL.
